Data on one molecule can be found in patent US9643980B2, “Benzoxazepin oxazolidinone compounds and methods of use” (Genentech, Inc., priority 2015, dated 2017).

Protein sequences, listed by entry. Tags and fused reporters are not part of them. Lines headed by an entry give the natural chain unless they say otherwise; changes in a name come on top.
UniProt P42336, whole entry: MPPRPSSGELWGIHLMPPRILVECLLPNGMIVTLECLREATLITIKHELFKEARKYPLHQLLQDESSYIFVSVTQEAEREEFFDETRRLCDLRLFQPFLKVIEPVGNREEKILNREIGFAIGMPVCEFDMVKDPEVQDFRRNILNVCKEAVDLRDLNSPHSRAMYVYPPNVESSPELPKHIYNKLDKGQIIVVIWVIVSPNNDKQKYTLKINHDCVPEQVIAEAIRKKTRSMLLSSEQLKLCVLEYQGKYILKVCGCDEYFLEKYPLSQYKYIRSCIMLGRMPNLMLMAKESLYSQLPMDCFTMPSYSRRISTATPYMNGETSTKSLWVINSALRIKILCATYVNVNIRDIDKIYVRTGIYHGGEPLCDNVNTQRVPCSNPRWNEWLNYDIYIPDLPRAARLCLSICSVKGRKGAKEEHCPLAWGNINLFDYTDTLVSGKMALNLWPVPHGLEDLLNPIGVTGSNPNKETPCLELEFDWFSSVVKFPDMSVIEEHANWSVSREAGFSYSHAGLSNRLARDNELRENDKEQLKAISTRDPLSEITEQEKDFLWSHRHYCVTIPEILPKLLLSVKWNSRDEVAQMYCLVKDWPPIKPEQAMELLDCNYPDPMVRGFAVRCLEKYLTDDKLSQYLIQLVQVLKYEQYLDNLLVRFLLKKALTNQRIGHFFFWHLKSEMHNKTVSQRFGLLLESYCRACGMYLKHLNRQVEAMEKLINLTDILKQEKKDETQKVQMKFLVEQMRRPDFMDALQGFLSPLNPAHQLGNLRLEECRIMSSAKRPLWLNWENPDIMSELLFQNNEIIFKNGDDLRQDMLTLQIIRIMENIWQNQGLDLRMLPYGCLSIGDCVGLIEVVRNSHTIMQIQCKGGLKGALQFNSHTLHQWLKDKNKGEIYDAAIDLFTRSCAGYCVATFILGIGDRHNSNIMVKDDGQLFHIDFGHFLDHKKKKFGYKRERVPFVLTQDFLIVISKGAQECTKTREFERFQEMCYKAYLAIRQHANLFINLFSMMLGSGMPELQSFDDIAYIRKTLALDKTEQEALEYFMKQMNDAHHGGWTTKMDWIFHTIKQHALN
UniProt O00329: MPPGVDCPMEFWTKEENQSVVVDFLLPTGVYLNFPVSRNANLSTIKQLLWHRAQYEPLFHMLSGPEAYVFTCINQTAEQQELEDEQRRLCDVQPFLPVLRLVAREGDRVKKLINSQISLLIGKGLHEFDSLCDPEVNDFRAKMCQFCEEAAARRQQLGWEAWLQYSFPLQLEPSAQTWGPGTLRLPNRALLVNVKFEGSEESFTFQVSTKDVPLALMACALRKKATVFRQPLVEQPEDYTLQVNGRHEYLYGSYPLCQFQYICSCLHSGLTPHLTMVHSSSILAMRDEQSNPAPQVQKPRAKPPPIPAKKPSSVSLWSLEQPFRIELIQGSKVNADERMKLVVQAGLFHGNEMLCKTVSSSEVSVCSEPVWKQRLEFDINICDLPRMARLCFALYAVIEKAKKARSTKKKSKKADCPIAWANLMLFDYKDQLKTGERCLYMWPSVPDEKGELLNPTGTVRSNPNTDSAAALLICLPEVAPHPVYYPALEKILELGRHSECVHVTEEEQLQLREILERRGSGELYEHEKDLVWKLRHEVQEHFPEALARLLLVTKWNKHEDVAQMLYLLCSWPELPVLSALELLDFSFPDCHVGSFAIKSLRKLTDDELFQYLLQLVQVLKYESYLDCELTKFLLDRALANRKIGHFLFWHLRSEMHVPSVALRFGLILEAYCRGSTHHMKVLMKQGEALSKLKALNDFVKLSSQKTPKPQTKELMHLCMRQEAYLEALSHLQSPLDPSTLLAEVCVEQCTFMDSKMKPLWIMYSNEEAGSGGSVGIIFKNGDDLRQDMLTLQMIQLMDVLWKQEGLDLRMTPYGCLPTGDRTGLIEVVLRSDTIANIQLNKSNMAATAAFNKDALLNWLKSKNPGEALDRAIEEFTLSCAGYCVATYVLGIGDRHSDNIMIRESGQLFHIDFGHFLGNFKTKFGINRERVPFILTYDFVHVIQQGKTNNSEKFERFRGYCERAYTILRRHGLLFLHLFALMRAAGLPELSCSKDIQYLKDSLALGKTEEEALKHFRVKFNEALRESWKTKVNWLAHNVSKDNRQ
UniProt P48736: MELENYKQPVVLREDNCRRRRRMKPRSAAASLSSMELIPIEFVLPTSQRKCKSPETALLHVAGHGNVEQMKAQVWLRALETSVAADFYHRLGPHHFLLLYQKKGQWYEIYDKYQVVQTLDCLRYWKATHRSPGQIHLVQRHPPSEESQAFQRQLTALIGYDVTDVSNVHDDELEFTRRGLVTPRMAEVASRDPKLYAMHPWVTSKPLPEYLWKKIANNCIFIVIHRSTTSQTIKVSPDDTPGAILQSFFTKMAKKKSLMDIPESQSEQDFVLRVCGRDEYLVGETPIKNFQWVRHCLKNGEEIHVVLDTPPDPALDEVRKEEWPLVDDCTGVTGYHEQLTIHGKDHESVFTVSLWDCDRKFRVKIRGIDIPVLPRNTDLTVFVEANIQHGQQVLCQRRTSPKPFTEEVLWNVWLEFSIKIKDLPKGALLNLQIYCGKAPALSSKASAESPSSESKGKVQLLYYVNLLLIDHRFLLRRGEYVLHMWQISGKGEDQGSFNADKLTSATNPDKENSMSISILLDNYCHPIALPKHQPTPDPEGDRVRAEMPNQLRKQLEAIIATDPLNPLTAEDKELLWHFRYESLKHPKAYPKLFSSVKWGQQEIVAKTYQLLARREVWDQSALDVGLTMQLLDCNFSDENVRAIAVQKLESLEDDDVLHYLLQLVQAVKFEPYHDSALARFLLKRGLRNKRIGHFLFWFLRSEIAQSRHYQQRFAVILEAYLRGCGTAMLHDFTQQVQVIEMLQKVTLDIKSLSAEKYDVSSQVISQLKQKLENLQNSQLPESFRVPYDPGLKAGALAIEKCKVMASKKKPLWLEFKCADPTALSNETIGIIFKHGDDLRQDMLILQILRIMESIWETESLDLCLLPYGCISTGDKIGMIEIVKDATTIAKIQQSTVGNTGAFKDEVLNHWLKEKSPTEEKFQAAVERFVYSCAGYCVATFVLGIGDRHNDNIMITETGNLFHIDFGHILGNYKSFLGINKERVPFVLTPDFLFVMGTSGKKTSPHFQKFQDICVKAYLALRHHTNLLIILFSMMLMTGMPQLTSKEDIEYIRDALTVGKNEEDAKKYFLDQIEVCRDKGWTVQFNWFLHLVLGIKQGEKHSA

Like-named read-outs stand apart in the source and are kept apart here.

Test [1] concerns the target T1, PI3Kα (Homo sapiens, UniProt P42336). Description: PI3K binding assay (lipid kinase reaction, ADP-Glo), PI3K alpha. Type of test: biochemical. Background: ADP-Glo turns the ADP formed in a reaction into a luminescent signal.
The target in test [2] is T2, PI3Kδ (Homo sapiens, UniProt O00329). Description: PI3K binding assay (lipid kinase reaction, ADP-Glo), PI3K delta. The class given is biochemical.
Another test has as its target PI3Kγ (Homo sapiens, UniProt P48736). Description: PI3K binding assay (lipid kinase reaction, ADP-Glo), PI3K gamma. The class given is biochemical. As to conditions: Table 2A; first value of cell (ADP-Glo, Example 901).
The target of test [3] is T1, PI3Kα. The note with it: read-out: PI3Kα FP Ki, second value of cell after slash (FP).
Test [4] deals with T2, PI3Kδ. As to conditions: read-out: PI3Kδ FP Ki, second value of cell after slash (FP).
[5] abbreviates: Table 2A, first value of cell (ADP-Glo, Example 901).
Where [6] appears, read: Table 2B comparator compounds, first value of cell (ADP-Glo).

For `Cc1nc(-c2cn3c(n2)-c2ccc(-c4cnn(C(C)(C)C(N)=O)c4)cc2OCC3)n(C(C)C)n1` [taselisib, 2-(4-(2-(1-isopropyl-3-methyl-1H-1,2,4-triazol-5-yl)-5,6-dihydrobenzo[f]imidazo[1,2-d][1,4]oxazepin-9-yl)-1H-pyrazol-1-yl)-2-methylpropanamide, reference compound], the Ki (usually the equilibrium dissociation constant of an inhibitor or competing ligand from its target) at PI3Kα [1] (setting [5]) was found to be 0.09 nM; on PI3Kα [1] (setting [6]), 0.09 nM; on PI3Kδ [2] (setting [5]), 0.079 nM; at PI3Kδ [2] (setting [6]), 0.079 nM; on PI3Kγ it was 1.43 nM; on PI3Kα [3] (Table 2A), 0.29 nM. Moreover, the Ki on PI3Kα [3] (Table 2B) was found to be 0.29 nM; on PI3Kδ [4] (Table 2A) it was 0.12 nM; on PI3Kδ [4] (Table 2B), 0.12 nM.
